This experiment addresses human D3R (Homo sapiens, UniProt P35462). Put plainly: [35S]GTPγS binding assay, CHO-hD3 membranes. It counts as biochemical. (In general: Binding of GTPγS marks nucleotide exchange on a G protein.)

Amino acid sequences for entries named in this document (tags omitted). A change or cut given only in a name is not applied to a line headed by its entry.
UniProt P35462, whole entry: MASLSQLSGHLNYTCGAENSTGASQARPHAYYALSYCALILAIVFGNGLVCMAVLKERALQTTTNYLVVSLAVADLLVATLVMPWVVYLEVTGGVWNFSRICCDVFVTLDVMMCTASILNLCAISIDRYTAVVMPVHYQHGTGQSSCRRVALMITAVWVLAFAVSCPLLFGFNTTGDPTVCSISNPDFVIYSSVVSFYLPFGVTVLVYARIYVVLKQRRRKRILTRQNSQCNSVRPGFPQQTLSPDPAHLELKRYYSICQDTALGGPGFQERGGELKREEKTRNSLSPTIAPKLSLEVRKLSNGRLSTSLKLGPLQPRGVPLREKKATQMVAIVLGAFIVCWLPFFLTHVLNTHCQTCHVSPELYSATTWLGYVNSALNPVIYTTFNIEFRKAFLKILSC

Molecules are shown by their SMILES.

Experimental findings from paper PMC4148173 (2014) are described below.

For `CC(C)(C)c1nc(N2CCN(CCCCNC(=O)[C@H]3CC[C@H](c4ccccc4)CC3)CC2)cc(C(F)(F)F)n1` [Compound 39, trans-N-(4-(4-(2-(tert-Butyl)-6-(trifluoromethyl)pyrimidin-4-yl)piperazin-1-yl)butyl)-4-phenylcyclohexanecarboxamide], the Kb is 19 ± 4 nM.
